Reference: US6841362B1, “Melanoma differentiation associated gene-7 promoter and uses thereof” (The Trustees of Columbia University in the City of New York, priority 2000, dated 2005)

Assays:
Assay type in all cases: cell-based, human
[1] = tested on: FL-mda-7 promoter; test: FL-mda-7 promoter luciferase reporter assay, transient transfection; conditions: HO-1 and MeWo cells, 48 hr treatment, relative to uninduced; IFN-β 2000 units/ml, MEZ 10 ng/ml
Procedure: FIGS. 1A-1B. The effect of differentiation inducer drug treatment on full length mda-7 promoter activity. Fold induction of the FL-mda-7 promoter relative to the pGL3-Basic plasmid with or without differentiation inducer drug treatment in HO-1 (FIG. 1A) or MeWo (FIG. 1B) human melanoma cells. Luciferase assays were performed as previously described (Gopalkrishnan et al., 1999). In brief, the promoter-containing plasmids were transiently transfected into the different cell types using Superfect^R (Qiagen) according to the manufacturer's protocol. The cells were treated with differentiation inducers (IFN-β, 2000 units/ml; MEZ, 10 ng/ml; or IFN-β+MEZ, 2000 units/ml+10 ng/ml) for 48 h following transfection and assayed for luciferase activity using the Luc+Assat Kit (Promega). The SV40-p-Galactosidase plasmid was co-transfected with the luciferase constructs and used to normalize for variations in transfection efficiencies between experiments. […]
The presumptive promoter fragment was assayed for promoter activity using a heterologous gene reporter system (pGL3-Basic, luciferase assay system, Promega). […] The transfection efficiency was determined by cotransfection with RSV-β-galactosidase (Tropics β-Gal assay kit) and the relative luciferase activity was computed after correction for variations in transfection efficiencies. […]

[2] = tested on: mda-7-ARE-3'-UTR; test: Luciferase-mda-7-ARE-3'UTR reporter assay; conditions: HO-1 cells
Source text: FIGS. 3A-3B. Posttranscriptional regulation of Luciferase mRNA as a consequence of mda-7-3′ UTR addition at its 3′-end. The Luciferase expression plasmid having SV40 polyadenylation signal sequence was replaced with the 3′-UTR region (approximately 900 bp) of mda-7. A schematic representation of this chimeric construct is shown above the data. (FIG. 3A) Mda-7 3′-UTR mediated destabilization of luciferase mRNA was computed as fold induction of luciferase enzyme activity, which is seen only when stable luciferase mRNA, is synthesized. Compare the result shown in FIG. 1A of uninduced and IFN-β and MEZ treated samples. The relative activity is very high as shown in FIGS. 1A-1B as the 3′-UTR used in that assay came from SV40 while the 3′-UTR used in this study was replaced with the mda-7 3′-UTR. […]
To examine the posttranscriptional regulation of mda-7 mRNA specifically during terminal differentiation of human melanoma cells, we constructed a Luciferease-mda-7-ARE-3′UTR plasmid under transcriptional control of either the FL-mda-7 promoter (FIG. 3) or the SV40 large T-antigen promoter. […] Based on these observations we conclude that the steady state level of mda-7 mRNA is determined by posttranslational decay of the message, which is apparent in uninduced and in HO-1 cells treated singularly with IFN-β or MEZ.

[3] = tested on: mda-7 gene; test: Nuclear run-on assay of mda-7 transcription; conditions: HO-1 cells, 24 h treatment, versus uninduced control
Procedure: (§1) FIGS. 2A-2C. Determination of mda-7 transcription by nuclear run-on, mda-7 mRNA by Northern blotting and RT-PCR and a comparison of the AU-rich sequences found in the 3′-UTR of several mRNAs. (FIG. 2A) Nuclear run-on assays using nuclei isolated from Control or 24 h after treatment with IFN-β, MEZ or IFN-β+MEZ, the same concentrations as indicated in FIG. 1. GAPDH was used as an internal control. In vitro transcription assays were performed as previously described (Jiang et al., 1993). (FIG. 2B) Mda-7 message expression detected by Northern blotting and RT-PCR followed by Southern blotting. Total RNA from control (FIG. 2C) HO-1 cells and cells treated with IFN-β (I), MEZ (M) or IFN-β+MEZ (I+M) were analyzed by Northern blotting or RT-PCR/Southern using radiolabeled mda-7 cDNA as a probe as previously described (Jiang et al., 1993, 1995a; Kang et al., 1998a). GAPDH was used as an internal loading control. (C) Several cytokine genes and proto-oncogenes that contain the AUUUA consensus sequence in their 3′-UTRs. Abbreviations: Hu=human; mda-7=melanoma differentiation associated gene-7 (Jiang et al., 1995a); α-IFN alpha interferon (Goeddel et al., 1981); GM-CSF=granulocyte-monocyte colony stimulating factor (Wong et al., 1985); TNF=tumor necrosis factor (Nedwin et al., 1985); cFos=fos proto-oncogene (van Straaten et al., 1983). (SEQ ID NOS:9-13). […]

[4] = tested on: mda-7 mRNA; test: RT-PCR followed by Southern blotting of mda-7 mRNA; conditions: HO-1 cells, compared to IFN-β+MEZ treated samples
Procedure: as §1
Nucleic acid analysed. […]

**Q.** Which results are given for “IFN-β: recombinant human fibroblast interferon”?
**A.** activity of the FL-mda-7 promoter (luciferase) [1]: decreases; luciferase enzyme activity of Luciferase-mda-7-ARE-3'UTR construct [2]: minimal; rate of mda-7 transcription [3]: reduced; mda-7 mRNA by RT-PCR [4]: lower levels
